Data on 1 molecule can be found in PubChem BioAssay AID1645848.

Some results are limits rather than exact numbers.

The conditions of the data set: buffer; pH 7.4; 6.0 h; 150.0 µM.

As a reminder, the kinetic solubility is the concentration staying in solution when a stock, usually in DMSO, is diluted into the medium. For the molecule `CC(=O)NC(SC(=S)N(C)C)C(Cl)(Cl)Cl` (stereo unspecified), the solubility (kinetic) is > 46 µg/mL.
